Each structure is given as a SMILES string.

The chains behind the UniProt entries cited, without tags or fusion partners. Residues count along the entry.
UniProt O43570, 25-354 limits assumed: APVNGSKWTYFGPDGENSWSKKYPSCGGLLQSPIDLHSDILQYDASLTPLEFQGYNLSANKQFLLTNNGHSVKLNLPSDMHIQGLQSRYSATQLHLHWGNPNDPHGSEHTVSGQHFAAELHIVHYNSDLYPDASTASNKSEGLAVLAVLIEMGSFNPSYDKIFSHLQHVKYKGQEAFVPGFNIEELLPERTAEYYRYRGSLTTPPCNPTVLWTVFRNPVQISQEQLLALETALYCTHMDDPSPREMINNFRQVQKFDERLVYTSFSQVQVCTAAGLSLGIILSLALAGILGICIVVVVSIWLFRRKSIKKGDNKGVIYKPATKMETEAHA

The assay addresses Carbonic anhydrase 12 (Homo sapiens, UniProt O43570). Kind of assay: Inhibition of human recombinant catalytic domain CA12.

For the molecule `O=[As](O)(O)c1ccccc1`, the Ki worked out at 840 µM.

In general, Ki refers to the dissociation constant of the complex between target and ligand, obtained from inhibition or displacement.

(Values after BindingDB's records for 17257840.)
